Source: article PMC9174471
This is one part of the list.

biological target: Obg-like ATPase 1 (UniProt Q9NTK5); assay: cross-link between two proteins; cross-linking mass spectrometry

Listed as a hit, yes:
Histone H2B type 1-L, Q99880
Small ribosomal subunit protein uS12, P62266
Histone H2B type 1-B, P33778
Histone H1.10, Q92522
